Source: patent publication US20040224958A1, “Pyridopyrimidinone derivatives for treatment of neurodegenerative disease” (priority 2000, published 2004)

- melting point: 133 to 135 °C
SMILES: O=c1ccc2cnc(Nc3ccccc3)nc2n1CCCOCc1ccccc1 [Example 38, 8-(3-Benzyloxypropyl)-2-phenylamino-8H-pyrido[2,3-d]pyrimidin-7-one]
